Test results as given in ChEMBL document CHEMBL2321744 (J Med Chem, 2013).

Sequences of proteins named here, by UniProt entry; tags and fusion partners are left off. A change or cut given only in a name is not applied to a line headed by its entry.
UniProt P35372, whole entry, looked up: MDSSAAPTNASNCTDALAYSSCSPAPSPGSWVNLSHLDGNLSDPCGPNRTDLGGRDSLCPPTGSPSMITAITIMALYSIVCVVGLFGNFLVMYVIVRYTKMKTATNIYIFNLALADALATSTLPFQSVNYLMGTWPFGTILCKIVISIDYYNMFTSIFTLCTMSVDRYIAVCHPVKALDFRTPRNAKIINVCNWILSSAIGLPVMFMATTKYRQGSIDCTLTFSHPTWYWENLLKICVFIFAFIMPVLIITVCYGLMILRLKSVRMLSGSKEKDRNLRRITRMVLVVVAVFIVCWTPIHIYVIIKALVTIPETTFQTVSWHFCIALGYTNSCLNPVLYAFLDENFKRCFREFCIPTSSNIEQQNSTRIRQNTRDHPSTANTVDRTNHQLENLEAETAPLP
UniProt P41145: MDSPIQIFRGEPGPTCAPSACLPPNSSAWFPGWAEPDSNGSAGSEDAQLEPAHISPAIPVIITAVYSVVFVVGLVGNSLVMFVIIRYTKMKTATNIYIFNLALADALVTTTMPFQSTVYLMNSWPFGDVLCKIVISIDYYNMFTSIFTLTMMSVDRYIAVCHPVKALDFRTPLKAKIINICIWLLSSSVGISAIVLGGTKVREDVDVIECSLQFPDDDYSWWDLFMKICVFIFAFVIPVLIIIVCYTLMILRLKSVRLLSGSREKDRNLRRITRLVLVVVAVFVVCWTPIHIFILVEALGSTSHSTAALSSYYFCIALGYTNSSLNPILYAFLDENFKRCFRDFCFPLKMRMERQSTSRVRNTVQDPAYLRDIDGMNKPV

Legend:
[1] = target: Mu-type opioid receptor (Homo sapiens) (UniProt P35372); experiment: Inhibition of human MOP receptor at 10 uM by radioligand binding assay
[2] = target: Kappa-type opioid receptor (Homo sapiens) (UniProt P41145); experiment: Agonist activity at human KOP receptor
[3] = target: Mu-type opioid receptor (Homo sapiens) (UniProt P35372); experiment: Agonist activity at human MOP receptor
[4] = target: Kappa-type opioid receptor (Homo sapiens) (UniProt P41145); experiment: Inhibition of human KOP receptor at 10 uM by radioligand binding assay

Structure (SMILES)	inhibition [1] [%]	Activity [2]	Activity [3]	inhibition [4] [%]
Cc1cccc(N2CNC(=O)C23CCN(C[C@H](C)NC(=O)c2ccc(Br)cc2)CC3)c1	> 50	inactive	inactive	> 50
O=C(NCCN1CCC2(CC1)C(=O)NCN2c1cccc(F)c1)c1ccc(F)c(F)c1	–	inactive	inactive	–

The source made the active and inactive calls. No cut-off for these calls is given here.
